From BindingDB's records for 12904075 come the findings set out here.

The chains behind the UniProt entries cited, without tags or fusion partners. Residues count along the entry.
UniProt P10696, 20-503 limits assumed: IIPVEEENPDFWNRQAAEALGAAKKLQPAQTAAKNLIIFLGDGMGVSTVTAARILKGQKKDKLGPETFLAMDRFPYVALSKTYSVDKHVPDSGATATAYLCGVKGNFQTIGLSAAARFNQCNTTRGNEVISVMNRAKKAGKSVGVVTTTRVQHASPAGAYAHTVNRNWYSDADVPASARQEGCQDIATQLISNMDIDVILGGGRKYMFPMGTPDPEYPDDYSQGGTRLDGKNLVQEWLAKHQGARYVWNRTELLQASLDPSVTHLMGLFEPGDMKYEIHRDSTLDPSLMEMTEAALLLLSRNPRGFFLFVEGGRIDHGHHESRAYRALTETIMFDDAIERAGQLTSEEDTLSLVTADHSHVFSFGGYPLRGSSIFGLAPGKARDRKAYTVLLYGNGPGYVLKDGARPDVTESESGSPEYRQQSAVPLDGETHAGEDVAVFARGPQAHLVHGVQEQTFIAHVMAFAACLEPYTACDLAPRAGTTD
UniProt P03772, whole entry: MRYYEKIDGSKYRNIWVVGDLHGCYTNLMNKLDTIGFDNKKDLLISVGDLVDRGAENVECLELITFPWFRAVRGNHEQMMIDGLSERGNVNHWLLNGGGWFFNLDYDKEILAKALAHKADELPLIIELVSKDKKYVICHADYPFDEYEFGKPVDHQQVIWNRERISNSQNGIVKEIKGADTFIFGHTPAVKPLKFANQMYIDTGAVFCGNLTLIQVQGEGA

Some compounds may have been tested in ways that are not shown here.

The target of assay [1] is Alkaline phosphatase, germ cell type (Homo sapiens, UniProt P10696). In words: ASSAY_NAME: ChEMBL_157081 (CHEMBL765525) DESCRIPTION: Inhibition of Human Placental alkaline Phosphatase (PLAP).
Assay [2] deals with Serine/threonine-protein phosphatase (Lambdavirus lambda, UniProt P03772). The assay is described as follows: ASSAY_NAME: ChEMBL_96757 (CHEMBL705380) DESCRIPTION: Inhibitory activity against Serine/Threonine Protein Phosphatase (Lambda protein phosphatase).

With `OP(O)(=S)CSc1ccccc1`, the inhibition constant Ki (commonly the equilibrium dissociation constant of an inhibitor or competing ligand from its target) in assay [1] was found to be 460 µM; in assay [2] it was 470 µM.
With `CCCCP(O)(O)=S`, the Ki in assay [1] was 600 µM; in assay [2] it was 20000 µM.
In the case of `OP(O)(=S)Cc1ccccc1`, the Ki in assay [1] worked out at 200 µM; in assay [2], 570 µM.
In the case of `CSCP(O)(O)=S`, the Ki in assay [1] amounted to 40 µM; in assay [2] it was 1200 µM.
